Ki data for 1 compound are collected here from ChEMBL document CHEMBL1833909, “Synthesis and structure-activity relationships of 4,5-fused pyridazinones as histamine H₃ receptor antagonists” (Bioorg Med Chem Lett, 2011).

The chains behind the UniProt entries cited, without tags or fusion partners. Where a name states a change or a piece, a line headed by the entry shows the natural chain unless it says otherwise.
UniProt Q9QYN8: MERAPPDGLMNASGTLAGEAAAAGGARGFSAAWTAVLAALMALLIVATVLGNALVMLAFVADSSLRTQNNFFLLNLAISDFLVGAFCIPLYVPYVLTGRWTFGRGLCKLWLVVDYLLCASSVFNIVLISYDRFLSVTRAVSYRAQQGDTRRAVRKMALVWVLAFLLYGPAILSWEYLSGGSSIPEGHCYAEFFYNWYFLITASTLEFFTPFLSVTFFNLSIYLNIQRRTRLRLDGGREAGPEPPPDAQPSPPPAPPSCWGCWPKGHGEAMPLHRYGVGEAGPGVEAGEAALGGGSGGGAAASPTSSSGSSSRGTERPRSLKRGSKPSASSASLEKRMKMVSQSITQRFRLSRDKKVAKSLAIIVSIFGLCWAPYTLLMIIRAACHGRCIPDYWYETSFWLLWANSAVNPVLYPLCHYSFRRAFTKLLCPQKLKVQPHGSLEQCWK

Usually Ki stands for a measure of affinity in units of concentration, obtained from inhibition or displacement. High values mean weaker binding, low ones tighter binding.

The structures appear in SMILES notation.

The target in this experiment is Histamine H3 receptor (Rattus norvegicus, UniProt Q9QYN8). Nature of the experiment: Displacement of [3H]-NAMH from rat histamine H3 receptor expressed in CHO cells. It is filed as cell-based. A general note: Displacement assays read how much labelled ligand stays bound in the presence of the test substance.

For `C[C@@H]1CCCN1CCc1cc2cc(-c3ccc(C#N)cc3)ccc2o1`, the Ki turned out to be 3 nM.
